The list shows a part of the results, in another mix than the full data. The source made the active and inactive calls.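 Rule for the calls: active = activation above the mean over all tested compounds plus 3 SD (cut at about 0.9% in these data); inactive = the rest.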
Test system: Nuclear hormone receptor DAF-12 (Strongyloides stercoralis)
Experiment: ssDAF-12 driven luciferase reporter activation – cell-based, luminescence, HEK293, GRIP1 co-expression, lit1-tk-luc, primary screen (AID 652126);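 note: 0% = DMSO-only wells and 100% = 3 µM delta7-dafachronic acid wells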
Details: HEK293 ssDAF-12/GRIP1 lit1-tk-luc reporter, at 6.8 µM, active compounds read high, % of 3 µM dafachronic acid response

SMILES | activation
CCCOc1ccc(NP(C)(=O)Oc2ccc(Cl)cc2)cc1 (configuration not stated) | inactive: -1.17%
CP(=O)(Nc1ccc(SC(F)(F)F)cc1)Oc1ccccc1 (configuration not stated) | inactive: -1.57%
COc1ccc(-c2ccccn2)cc1.O=[N+]([O-])c1cc([N+](=O)[O-])c(O)c([N+](=O)[O-])c1 | inactive: -0.76%
COc1ccccc1OP(C)(=O)Nc1c(C)cccc1C (configuration not stated) | inactive: -1%
CN1CCCCC1COC(=O)C1(O)c2ccccc2CCc2ccccc21 (configuration not stated) | inactive: -0.85%
CN(Cc1cccnc1)C(=O)COc1ccc(Cl)c(Cl)c1.O=[N+]([O-])c1cc([N+](=O)[O-])c(O)c([N+](=O)[O-])c1 | inactive: -0.89%
O=[N+]([O-])c1cc([N+](=O)[O-])c(-n2nnc3ccccc32)c([N+](=O)[O-])c1 | inactive: -0.52%
Cc1nc2ccc3ccccc3c2s1.O=[N+]([O-])c1cc([N+](=O)[O-])c(O)c([N+](=O)[O-])c1 | inactive: -0.48%
O=[N+]([O-])c1cc([N+](=O)[O-])c(-c2cnn(-c3ccccc3)c2)c([N+](=O)[O-])c1 | inactive: -1.45%
Cc1cc(C)cc(OP(C)(=O)Nc2ccc(C)cc2C)c1 (configuration not stated) | inactive: -1.93%
CCOC(=O)c1ccc(NP(C)(=O)Oc2cc(C)cc(C)c2)cc1 (configuration not stated) | inactive: -1.95%
COc1ccccc1OP(C)(=O)Nc1cccc(Br)c1 (configuration not stated) | inactive: -0.92%
Cc1cc(C)cc(OP(C)(=O)Nc2ccccn2)c1 (configuration not stated) | inactive: -1.1%
CP(=O)(Nc1cccc(Br)c1)Oc1ccccc1 (configuration not stated) | inactive: -1.29%
Cc1ccc(C)c(NP(C)(=O)Oc2ccccc2)c1 (configuration not stated) | inactive: -0.97%
O=C(O)c1cccc(Nc2c([N+](=O)[O-])cc([N+](=O)[O-])cc2[N+](=O)[O-])c1 | inactive: -0.97%
CC1=NCCc2c1[nH]c1ccccc21.O=[N+]([O-])c1cc([N+](=O)[O-])c(O)c([N+](=O)[O-])c1 | inactive: 0.04%
CC(C)(C)c1ccc(OP(C)(=O)Nc2ccc(SC(F)(F)F)cc2)cc1 (configuration not stated) | inactive: -0.46%
Cc1cccc(C)c1OP(C)(N)=O (configuration not stated) | inactive: -0.49%
O=[N+]([O-])c1ccc2c(c1)C=Nc1ccccc1O2 | inactive: -1.3%
O=[N+]([O-])c1cc([N+](=O)[O-])c(Nc2cccnc2)c([N+](=O)[O-])c1 | inactive: -1%

SMILES | activation
COc1ccccc1OP(C)(=O)Nc1cc(Cl)ccc1C (configuration not stated) | inactive: 0.25%
COc1ccc(OP(C)(=O)Nc2cccc(F)c2)cc1 (configuration not stated) | inactive: -1.02%
Cc1cc(C)cc(OP(C)(N)=O)c1 (configuration not stated) | inactive: -1.94%
CCOC(=O)c1ccc(NP(C)(=O)Oc2ccccc2)cc1 (configuration not stated) | inactive: -1.12%
COc1ccccc1OP(C)(=O)Nc1ccc(C)cc1 (configuration not stated) | inactive: -1.39%
Cc1ccc(NP(C)(=O)Oc2ccccc2)c(C)c1 (configuration not stated) | inactive: -0.58%
CCN(CC)CCCOC(=O)C(O)(c1ccccc1)c1ccccc1 | inactive: -0.44%
COc1ccccc1-c1ccccn1.O=[N+]([O-])c1cc([N+](=O)[O-])c(O)c([N+](=O)[O-])c1 | inactive: -1.34%
CP(=O)(NC(=O)Nc1ccccc1)Oc1ccccc1 (configuration not stated) | inactive: -1.08%
CCc1ccc(OP(C)(=O)N2CCN(c3ccc([N+](=O)[O-])cc3)CC2)cc1 (configuration not stated) | inactive: -2.21%
Cc1cc(C)cc(OP(C)(=O)Nc2ccc(SC(F)(F)F)cc2)c1 (configuration not stated) | inactive: -1.58%
Cc1cccc(C)c1OP(C)(=O)Nc1ccc(SC(F)(F)F)cc1 (configuration not stated) | inactive: -0.65%
CP(=O)(Nc1ccc(SC(F)(F)F)cc1)Oc1ccc(Cl)cc1 (configuration not stated) | inactive: -1.6%
CP(=O)(Oc1ccccc1)OC(c1ccccc1)C(F)(F)F (configuration not stated) | inactive: -1.16%
CP(=O)(Nc1ccccn1)Oc1ccc(Cl)cc1 (configuration not stated) | inactive: -0.35%
CCOP(C)(=S)SCC(=O)NC(C)C(=O)O (configuration not stated) | inactive: -1.26%
CCOC(=O)c1ccc(NP(C)(=O)Oc2ccc(OC)cc2)cc1 (configuration not stated) | inactive: -1.57%
O=[N+]([O-])c1cc([N+](=O)[O-])c(O)c([N+](=O)[O-])c1.c1ccc(Oc2ccncc2)cc1 | inactive: -1.05%
COc1ccccc1OP(C)(=O)Nc1ccccc1 (configuration not stated) | inactive: -1.37%
CP(=O)(Nc1ccccc1Br)Oc1ccccc1 (configuration not stated) | inactive: -1.49%
CP(=S)(Nn1cnnc1)Oc1ccccc1 (configuration not stated) | inactive: -0.32%

Source: PubChem BioAssay AID652126 (The Scripps Research Institute Molecular Screening Center, 2013)
